Experimental data published in patent publication EP0555208B1, “METAL OXIMATE POLYETHYLENE GLYCOLS CHEMICAL DECONTAMINANT SYSTEM” (dated 1992).

Tests used:
[1] = Post-contamination decontamination of guinea pigs, effect of added water; conditions: 1.25 molal KDAMO in MPEG550 with over 20 w/w % water of the base medium
[2] = Screening: decontaminants vs CW agents, agent destruction by gas chromatography; conditions: tetraglyme
[3] = GD, preparation method I, ratio salt:agent 1:1, salt conc 0.025 M
[4] = GD, preparation method I, ratio salt:agent 2:1, salt conc 0.05 M
[5] = GD, preparation method II (in situ), ratio salt:agent 1:1, salt conc 0.025 M
[6] = GD, preparation method II (in situ), ratio salt:agent 2:1, salt conc 0.05 M
[7] = HD, preparation method I, ratio salt:agent 1:1, salt conc 0.025 M
[8] = HD, preparation method I, ratio salt:agent 2:1, salt conc 0.05 M
[9] = HD, preparation method II (in situ), ratio salt:agent 1:1, salt conc 0.025 M
[10] = HD, preparation method II (in situ), ratio salt:agent 2:1, salt conc 0.05 M
[11] = VX, preparation method I, ratio salt:agent 1:1, salt conc 0.025 M
[12] = VX, preparation method I, ratio salt:agent 2:1, salt conc 0.05 M
[13] = VX, preparation method II (in situ), ratio salt:agent 1:1, salt conc 0.025 M
[14] = VX, preparation method II (in situ), ratio salt:agent 2:1, salt conc 0.05 M

## Potassium 2,3 butanedione monoximate
[1]
  effect on the survival of guinea pigs decontaminated after exposure to GD: negative effect

## potassium salt of diethylene glycol monomethyl ether
[2]; [3]
  % Decontamination at reaction time 10 sec: 67%
  % Decontamination at reaction time 30 sec: 88%
  % Decontamination at reaction time 1 min: 91%
  % Decontamination at reaction time 3 min: 93%
[2]; [4]
  % Decontamination at reaction time 10 sec: 100%
  % Decontamination at reaction time 30 sec: 100%
  % Decontamination at reaction time 1 min: 100%
[2]; [5]
  % Decontamination at reaction time 30 sec: 78%
  % Decontamination at reaction time 1 min: 82%
  % Decontamination at reaction time 3 min: 77%
  % Decontamination at reaction time 5 min: 80%
[2]; [6]
  % Decontamination at reaction time 10 sec: 100%
  % Decontamination at reaction time 30 sec: 100%
[2]; [7]
  % Decontamination at reaction time 10 sec: 75%
  % Decontamination at reaction time 1 min: 91%
  % Decontamination at reaction time 3 min: 96%
[2]; [8]
  % Decontamination at reaction time 10 sec: 99%
  % Decontamination at reaction time 30 sec: 100%
  % Decontamination at reaction time 1 min: 100%
[2]; [9]
  % Decontamination at reaction time 10 sec: 85%
  % Decontamination at reaction time 30 sec: 92%
  % Decontamination at reaction time 1 min: 82%
  % Decontamination at reaction time 3 min: 89%
  % Decontamination at reaction time 5 min: 94%
[2]; [10]
  % Decontamination at reaction time 10 sec: 87%
  % Decontamination at reaction time 30 sec: 99%
  % Decontamination at reaction time 1 min: 100%
  % Decontamination at reaction time 3 min: 100%
  % Decontamination at reaction time 5 min: 100%
[2]; [11]
  % Decontamination at reaction time 30 sec: 67%
  % Decontamination at reaction time 1 min: 80%
  % Decontamination at reaction time 5 min: 87%
[2]; [12]
  % Decontamination at reaction time 10 sec: 100%
  % Decontamination at reaction time 30 sec: 100%
[2]; [13]
  % Decontamination at reaction time 10 sec: 98%
  % Decontamination at reaction time 30 sec: 100%
  % Decontamination at reaction time 1 min: 100%
[2]; [14]
  % Decontamination at reaction time 10 sec: 100%
  % Decontamination at reaction time 30 sec: 100%
  % Decontamination at reaction time 3 min: 100%
